Assay results from PubChem BioAssay AID819 (Columbia University Molecular Screening Center, 2007).
The list shows a part of the results, in another mix than the full data. Some of these compounds have results that are not shown, active ones among them. Activity calls are given as the source filed them.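 Rule for the calls: active = activation above 40%, about the mean plus 3 SD, also judged a hit on visual image review; inconclusive = activation above 40% but not a hit on visual review; inactive = activation not above 40% and no visual hit.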

Test: enhancers of NFkB p65 translocation in HUVEC – imaging, IL-1B stimulus, high-content imaging, primary screen (AID 819);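 note: percent activation is computed from the nuclear over cytoplasmic p65 intensity ratio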
Conditions: HUVEC IL-1B NFkB p65 nuclear translocation imaging; at 2 µM; active compounds read high
For `CC(C)N1C(=O)CC2(CCN(CCOC(=O)C(O)(c3ccccc3)c3ccccc3)CC2)C1=O`, the activation was inactive: -9.44%.
For `CN(C)c1cccc(C(=O)NCC2(N(C)C)CCCCC2)c1`, the activation was inactive: 3.76%.
For `O=C(OC1CN2CCC1CC2)C(CO)(c1ccccc1)c1ccccc1` (stereo not drawn), the activation was inactive: 7.28%.
